This assay deals with N-terminal region of Gaussia princeps luciferase (Gluc) sequence-tagged UBL3 (NGluc-UBL3) (not stated (RefSeq NM_007106 is a human entry)) (UniProt O95164). Briefly: split reporter (BiFC, NanoBiT); Gaussia princeps split luciferase complementation assay as drug screen; HEK293 cells transfected with NGluc-UBL3 and α-syn-CGluc, 96-well plates, DMEM (10% FBS); cells treated for 48 h with drugs (1 and 10 uM) or MPP+ (50-600 uM), DMSO as control; luminescence of the cell culture medium, normalised to DMSO and divided by cell viability (MTT).

This is an account of results in publication PMC10295865.

As to “C-terminal region of Gluc sequence-tagged α-syn (α-syn-CGluc) (from UniProt P37840-1 1-140) (natural protein)”, the ratio of luminescence to cell viability relative to DMSO, with 1 uM erlotinib was 0.73; the ratio of luminescence to cell viability relative to DMSO, with 1 uM gemcitabine was determined as 1.37; the ratio of luminescence to cell viability relative to DMSO, with 10 uM erlotinib amounted to 0.72; the ratio of luminescence to cell viability relative to DMSO, with 10 uM gemcitabine was found to be 1.53. Moreover, the ratio of luminescence to cell viability relative to DMSO, with 10 uM osimertinib was 0.55.
